For this experiment, the target named is Phosphatidylinositol 4,5-bisphosphate 3-kinase catalytic subunit alpha isoform (Homo sapiens, UniProt P42336). The experiment in a line: Displacement of Alexafluor labelled kinase tracer314 from recombinant N-terminal His6-tagged PI3K p110alpha (unknown origin) incubated for 1 hr by FRET-based LanthaScreen Eu kinase binding assay.

By UniProt entry, the sequences of proteins in these tests, tags left out.
UniProt P42336, whole entry: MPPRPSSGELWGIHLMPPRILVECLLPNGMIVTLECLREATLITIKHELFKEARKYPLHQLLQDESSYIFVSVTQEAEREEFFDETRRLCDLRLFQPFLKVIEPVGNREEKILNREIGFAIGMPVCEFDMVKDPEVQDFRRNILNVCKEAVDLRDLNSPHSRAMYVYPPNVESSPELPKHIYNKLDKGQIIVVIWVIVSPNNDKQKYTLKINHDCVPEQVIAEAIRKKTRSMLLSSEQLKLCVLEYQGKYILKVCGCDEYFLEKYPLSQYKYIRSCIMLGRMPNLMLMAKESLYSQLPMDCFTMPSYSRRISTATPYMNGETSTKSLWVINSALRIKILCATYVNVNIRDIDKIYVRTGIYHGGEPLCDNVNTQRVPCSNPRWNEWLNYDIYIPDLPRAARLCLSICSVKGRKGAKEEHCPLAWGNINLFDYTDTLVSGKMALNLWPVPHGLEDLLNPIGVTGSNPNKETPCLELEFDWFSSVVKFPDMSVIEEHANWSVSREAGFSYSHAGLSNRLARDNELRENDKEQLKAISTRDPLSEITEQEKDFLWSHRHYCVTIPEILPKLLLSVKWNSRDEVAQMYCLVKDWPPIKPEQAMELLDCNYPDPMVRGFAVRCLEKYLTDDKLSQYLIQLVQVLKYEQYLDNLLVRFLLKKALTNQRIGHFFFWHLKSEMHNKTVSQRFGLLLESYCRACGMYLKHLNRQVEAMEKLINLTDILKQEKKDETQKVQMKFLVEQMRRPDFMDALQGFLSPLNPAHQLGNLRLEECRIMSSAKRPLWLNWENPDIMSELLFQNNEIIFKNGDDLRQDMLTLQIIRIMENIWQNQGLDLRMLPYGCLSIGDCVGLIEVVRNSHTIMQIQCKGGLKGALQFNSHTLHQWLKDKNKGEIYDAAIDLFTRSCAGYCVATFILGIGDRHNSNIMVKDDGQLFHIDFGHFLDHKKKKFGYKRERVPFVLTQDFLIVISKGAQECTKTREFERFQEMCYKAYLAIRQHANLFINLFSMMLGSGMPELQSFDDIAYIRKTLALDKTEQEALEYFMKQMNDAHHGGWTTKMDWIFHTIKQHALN

Take `C[C@H]1COCCN1c1nc(-c2cnc(N)cc2C(F)F)cc(N2CCOCC2)n1`: the Ki is 11.6 nM.
